First the molecules themselves.
B1: optineurin full-length wild-type (two-hybrid prey) [not stated] / LC3B (two-hybrid bait) [not stated] (parent)
chain 1: MSHQPLSCLTEKEDSPSESTGNGPPHLAHPNLDTFTPEELLQQMKELLTENHQLKEAMKLNNQAMKGRFEELSAWTEKQKEERQFFEIQSKEAKERLMALSHENEKLKEELGKLKGKSERSSEDPTDDSRLPRAEAEQEKDQLRTQVVRLQAEKADLLGIVSELQLKLNSSGSSEDSFVEIRMAEGEAEGSVKEIKHSPGPTRTVSTGTALSKYRSRSADGAKNYFEHEELTVSQLLLCLREGNQKVERLEVALKEAKERVSDFEKKTSNRSEIETQTEGSTEKENDEEKGPETVGSEVEALNLQVTSLFKELQEAHTKLSEAELMKKRLQEKCQALERKNSAIPSELNEKQELVYTNKKLELQVESMLSEIKMEQAKTEDEKSKLTVLQMTHNKLLQEHNNALKTIEELTRKESEKVDRAVLKELSEKLELAEKALASKQLQMDEMKQTIAKQEEDLETMTILRAQMEVYCSDFHAERAAREKIHEEKEQLALQLAVLLKENDAFEDGGRQSLMEMQSRHGARTSDSDQQAYLVQRGAEDRDWRQQRNIPIHSCPKCGEVLPDIDTLQIHVMDCII
chain 2: not shown

Variants of B1 are the subject of this assay. Kind of assay: mammalian 2-hybrid assay. The conditions noted are these: with LC3B (two-hybrid bait); CHOK.1 cells; LC3B as bait; read off a plot.
Take chain 1 F178A: the response worked out at 19.
